Molecular target: human GnRH receptors (Homo sapiens, UniProt P30968)
Experiment: 125I-leuprorelin binding inhibition, membrane fraction of CHO cells expressing human GnRH receptors
Conditions: for IC50: read-out: 125I-leuprorelin binding IC50 value (μM) human, Hill plot

Amino acid sequences for entries named in this document (tags omitted).
UniProt P30968, whole entry: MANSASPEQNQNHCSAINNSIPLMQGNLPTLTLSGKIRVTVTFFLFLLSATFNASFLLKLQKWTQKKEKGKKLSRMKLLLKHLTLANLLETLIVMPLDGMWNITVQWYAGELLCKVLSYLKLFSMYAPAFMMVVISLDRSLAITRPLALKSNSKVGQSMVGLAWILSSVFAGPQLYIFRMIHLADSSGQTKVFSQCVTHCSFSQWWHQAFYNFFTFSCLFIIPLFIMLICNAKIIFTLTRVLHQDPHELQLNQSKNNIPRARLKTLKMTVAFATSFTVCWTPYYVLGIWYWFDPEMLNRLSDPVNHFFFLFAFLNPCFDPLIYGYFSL

125I-leuprorelin binding inhibitory rate (%) human(20 μM) (compound 20 μM) [%]	IC50 [µM]	Compound
107	0.01	CCOC(=O)c1cn(Cc2ccccc2OC)c2sc(-c3ccc(NC(C)=O)cc3)c(CN(C)Cc3ccccc3)c2c1=O
	13	CCOC(=O)c1cn(Cc2ccccc2OC)c2sc(-c3ccc(OC)cc3)c(C)c2c1=O

Reference: patent US6514988B1, “Condensed-ring thiophene derivatives, their production and use” (Takeda Chemical Industries, Ltd., priority 1994, dated 2003)
